Values of other authors, collected in patent US11142520B2, “LDHA activity inhibitors” (ARCTIC PHARMA AS, priority 2017, dated 2021).

Tested on: LDHA
Settings: rapid clearance; cited from earlier work

**Q.** For O=C1CC(c2ccc(N3CCOCC3)cc2)(c2ccsc2)NC(=O)C1Sc1ccccc1Cl (stereo not shown) [Example 24, 3-((2-chlorophenyl)thio)-6-(4-morpholinophenyl)-6-(thiophen-3-yl)piperidine-2,4-dione], which “duration of sustained inhibition of LDHA in vivo” value is on record?
**A.** The value was no more than 1 h.
